Sequences of proteins named here, by UniProt entry; tags and fusion partners are left off.
UniProt P35372, whole entry: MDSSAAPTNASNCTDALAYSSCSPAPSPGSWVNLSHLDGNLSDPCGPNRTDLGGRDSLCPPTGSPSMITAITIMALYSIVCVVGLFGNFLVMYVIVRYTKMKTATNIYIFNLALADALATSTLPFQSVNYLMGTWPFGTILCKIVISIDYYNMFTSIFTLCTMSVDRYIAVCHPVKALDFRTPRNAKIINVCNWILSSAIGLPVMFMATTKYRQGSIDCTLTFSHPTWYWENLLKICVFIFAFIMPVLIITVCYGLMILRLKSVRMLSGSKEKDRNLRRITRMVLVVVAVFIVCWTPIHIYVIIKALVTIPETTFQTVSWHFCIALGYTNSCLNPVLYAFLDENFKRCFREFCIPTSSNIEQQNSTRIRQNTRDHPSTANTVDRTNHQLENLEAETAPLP

According to US8404740B2, “Spirocyclic cyclohexane compounds” (dated 2013):

What was measured:
mouse = experiment: Analgesia test in the tail-flick test in the mouse
human μ-opiate receptor = human μ-opiate receptor (Homo sapiens, UniProt P35372); experiment: Measurement of μ binding ([3H]-naloxone, CHO-K1 membrane preparation); conditions: test substance 1 μmol/liter

Structure (SMILES)	Tail-flick mouse i. v. % inhibition [10 μg/kg) (mouse) [%]	also measured
CCC1(N(C)C)CCC2(CC1)OCCc1c2[nH]c2ccccc12 (centres unmarked)	–	Tail-flick mouse i. v. % inhibition (mouse; 100 μg/kg): 90% (100 μg/kg)
CCCCC1(N(C)C)CCC2(CC1)c1[nH]c3ccccc3c1CCN2C(C)=O (centres unmarked)	75	–
CN(C)C1(C2CCCC2)CCC2(CC1)OCCc1c2[nH]c2ccccc12 (centres unmarked)	90	–
CCCCC1(N(C)C)CCC2(CC1)OCCc1c2[nH]c2ccc(F)cc12 (single isomer, unassigned)	60	–
COCCCC1(N(C)C)CCC2(CC1)NCCc1c2[nH]c2ccccc12 (centres unmarked)	–	μ % inhibition [1 μM] (human μ-opiate receptor): 26%
